Measurements taken from PubChem BioAssay AID463210 (The Scripps Research Institute Molecular Screening Center, 2010).
The entries are a selection whose mix differs from that of the whole data set. The source made the active and inactive calls.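 Rule for the calls: active = percent activation above the screen-wide mean plus 3 SD (cut at about 25% in these data); inactive = the rest.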

By UniProt entry, the sequences of proteins in these tests, tags left out.
UniProt P55210, whole entry D23A/D198A/D206A: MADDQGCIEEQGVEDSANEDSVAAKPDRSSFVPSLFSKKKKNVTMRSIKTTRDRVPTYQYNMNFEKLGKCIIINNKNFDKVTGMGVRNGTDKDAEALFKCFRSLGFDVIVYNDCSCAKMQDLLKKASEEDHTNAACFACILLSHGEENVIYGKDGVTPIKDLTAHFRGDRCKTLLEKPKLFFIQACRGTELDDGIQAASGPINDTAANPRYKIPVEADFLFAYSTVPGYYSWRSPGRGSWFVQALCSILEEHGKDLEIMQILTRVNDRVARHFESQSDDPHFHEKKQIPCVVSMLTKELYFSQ

What follows are compounds tested against Caspase-7 (Homo sapiens) (UniProt P55210) (assay: procaspase-7 activators, primary screen, counter-screen for procaspase-3 activator project, biochemical, absorbance, HTS, human (AID 463210)). Details: recombinant procaspase-7, Ac-DEVD-pNA absorbance 405 nm; at 8.5 µM; hits give high values; D23A/D198A/D206A triple mutant, cannot self-cleave; scale: DMSO 0, 5 µM enzyme 100.
How it was run: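 Assay system: Uncleavable procaspase-7 mutant enzyme / Input: 2 µM procaspase-7 mutant as dispensed / Dosing: single nominal 8.5 µM compound dose, 0.8% DMSO final / Timing: 1 h enzyme–compound preincubation and 2 h substrate reaction, both 25 °C / Detection: p-Nitroaniline absorbance at 405 nm, read at 0 and 120 min / Replication: singlicate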

SMILES	activation
O=C(NCC1(N2CCCCC2)CCCCC1)c1cccc(C(F)(F)F)c1	inactive: 5.15%
COc1cc(C(=O)NCC2(N3CCCCC3)CCCCC2)ccc1OC(F)F	inactive: -13.3%
O=C(NCC1(N2CCOCC2)CCCCC1)c1cc(=O)[nH]c2ccccc12	inactive: 24.6%
CN1CCN(CCOC(=O)C(O)(c2ccccc2)c2ccccc2)CC1	inactive: 0.14%
COc1ccc(NC2CCN(C(=O)OC(C)(C)C)CC2)cc1	inactive: -16%
O=C(NCC1(N2CCCCC2)CCCCC1)c1ccc(OC(F)F)cc1	inactive: 2.5%
CCN1CCC(Nc2ccc(Cl)cc2)CC1	inactive: 0.02%
N#CC1(Nc2ccccc2)CCN(CCc2ccccc2)CC1	inactive: 7.07%
O=C(NCC1(N2CCCCC2)CCCCC1)c1cccc([N+](=O)[O-])c1	inactive: 3.11%
O=C(NCC1(N2CCCCC2)CCCCC1)c1cncc(Br)c1	inactive: 6.34%
CN1CCC(Nc2cccc(F)c2)CC1	inactive: 17.7%
CC(C)c1ccc(NC2CCN(C(=O)OC(C)(C)C)CC2)cc1	inactive: -2.28%
COc1ccc(CN(CCCl)CCCl)cc1Cl	inactive: 6.2%
CN(C)c1cccc(C(=O)NCC2(N3CCCCC3)CCCCC2)c1	inactive: -2.78%
COc1cc(OC)c(C(=O)NCC2(N(C)C)CCCCC2)cc1OC	inactive: 2.51%
O=C(NCC1(N2CCOCC2)CCCCC1)c1cc(F)c(F)cc1Cl	inactive: 2.39%
O=C(NCC1(N2CCCCC2)CCCCC1)c1ccc(Cl)nc1	inactive: 4.33%
Cc1cc(C)cc(N(C(=O)c2ccccc2)C2CCN(C(=O)OC(C)(C)C)CC2)c1	inactive: -6.49%
O=C(NCC1(N2CCOCC2)CCCCC1)c1cc2ccccc2o1	inactive: -4.31%
O=C(OC1CN2CCC1CC2)C1c2ccccc2Oc2ccccc21 (stereo not drawn)	inactive: -6.92%
N#CC1(Nc2ccccc2)CCN(Cc2ccccc2)CC1	inactive: -0.24%
O=C(NCC1(N2CCCCC2)CCCCC1)c1ccc(Cl)s1	inactive: 6.33%
COc1ccc(Cl)cc1C(=O)NCC1(N2CCOCC2)CCCCC1	inactive: 0.94%
CCOC(=O)N1CCC(Nc2ccc(OC)cc2)CC1	inactive: -10.6%
COc1ccc(C(=O)NCC2(N3CCCCC3)CCCCC2)cc1	inactive: 0.01%
COc1ccc(C(=O)NCC2(N3CCCCC3)CCCCC2)c(OC)c1OC	inactive: 2.38%
CC(C)(C)OC(=O)N1CCC(N(C(=O)c2ccccc2)c2ccc(F)cc2)CC1	inactive: 21.7%
O=C(NCC1(N2CCCCC2)CCCCC1)c1ccc(=O)[nH]c1	inactive: 9.63%
